## Antibody variant affinities, Ab-14 light chain, assay B

Target peptide (SARS-CoV-2 spike, HR2 region): PDVDLGDISGINAS

Parent scFv Ab-14: VH joined to VL by a 15-residue (Gly4Ser)3 linker. Changes lie in the light chain CDRs alone.
VH: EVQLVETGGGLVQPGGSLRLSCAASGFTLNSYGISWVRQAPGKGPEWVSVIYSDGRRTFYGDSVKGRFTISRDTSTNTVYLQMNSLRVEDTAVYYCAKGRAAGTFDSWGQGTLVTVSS
VL: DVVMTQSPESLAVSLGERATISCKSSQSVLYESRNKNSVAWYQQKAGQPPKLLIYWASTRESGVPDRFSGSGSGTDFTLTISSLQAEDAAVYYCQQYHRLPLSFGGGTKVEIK

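The starting antibody came from a phage panning campaign against this peptide. Designed CDR sequences, proposed from the first random library and measured here. Several design methods are mixed in this list. AlphaSeq pools MATa yeast showing the antibodies with MATalpha yeast showing the peptide. The frequency of each diploid, read from paired DNA barcodes, reflects how well the two displayed proteins bind. A regression on co-assayed BCL2-family reference pairs converts the normalised counts of each replicate to an apparent Kd. Each pool was mated in six replicate cultures.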

Each variant is given by its three light chain CDRs, as the data file delimits them; those of the parent are KSSQSVLYESRNKNSVA, WASTRES, QQYHRLPLS. Values are log10 of the apparent Kd in nM; lower means stronger binding. Averages over replicates are reported, and they cover detected replicates only. A pair that was not seen in any replicate is written "nd"; this usually means weak binding, but a binder can also be missed. A sequence measured in both rounds can read differently, since the two assays cover different ranges.

-0.31 (6 of 6 replicates; controls 0 of 18) for KISQSVLYESRNKNSVA / HANTRES / QQYHRLPLS.
0.18 (6 of 6 replicates; controls 1 of 18) for KVSYSVEYEDRNKNSVA / MASQRNS / QQYHRLPLS.
1.14 (6 of 6 replicates; controls 1 of 18) for KLSWKSLYGETRWSAIA / NTKVRLA / QQYFRLPIQ.
-0.03 (6 of 6 replicates; controls 0 of 18) for KLSQSVLYESRNKNSVA / DASTRES / QQYHRLPIS.
-0.03 (6 of 6 replicates; controls 0 of 18) for KSSISWLYESRNKNSVA / EASTREQ / QQYHRLPLS.
-0.17 (6 of 6 replicates; controls 2 of 18) for HLSPSVAYESRNKNSVA / NASTRES / QQYHRLPLS.
0.06 (6 of 6 replicates; controls 0 of 18) for KVSQEKDYESRNKNSVA / DASTRES / QQYHRLPLS.
0.63 (6 of 6 replicates; controls 0 of 18) for KLTHPTDLWLNHVSAIA / DANISVE / QQYYQLPLT.
2.00 (1 of 6 replicates; controls 0 of 18) for KCSQSVLYESRNKSSVA / WASTRES / QQYHRLPLS.
-0.10 (6 of 6 replicates; controls 0 of 18) for KLPQSDLYESRNKNSVA / EASTREV / QQYHRLPLS.
0.56 (6 of 6 replicates; controls 3 of 18) for KLPNSKLYESRNKNQVA / SASTREM / QQYHRLPLS.
0.31 (6 of 6 replicates; controls 0 of 18) for KLYQSVLYESRNKNSVA / NASTRES / QDYHRLPLS.
nd (0 of 6 replicates; controls 0 of 18) for KSSQSVLFEERNKNSVA / WASTRES / QQYHRLPLS.
3.42 (3 of 6 replicates; controls 0 of 18) for HISQSVGMTSRQKNSVA / ENSTRED / QQYDRLPLS.
2.22 (5 of 6 replicates; controls 0 of 18) for KSQQSVPYESRNKNSVA / NASLRCS / QQYHRLPLS.
1.53 (6 of 6 replicates; controls 0 of 18) for KSSISYLHESRNKNSVS / EAHTRES / QQYHRLPLS.
0.23 (6 of 6 replicates; controls 2 of 18) for KLSQSMSYEWRNKMSVA / NASQRLS / QQYHRLPLS.
nd (0 of 6 replicates; controls 0 of 18) for KISQSVLYESRNHNSVA / WDSTRES / QQYHRLPIS.
0.48 (6 of 6 replicates; controls 1 of 18) for KLFQSWLYEQRNPNSVA / NASQRLL / QQYHRLPLS.
0.61 (6 of 6 replicates; controls 0 of 18) for KVSQLVNFLGKNKNSVA / QMSTRES / QQYDRLPLS.
0.06 (6 of 6 replicates; controls 0 of 18) for NLMQSVLYESRNKNSVA / HASLRED / QQYHRLPLS.
1.05 (6 of 6 replicates; controls 2 of 18) for MVGQGLMGESRAKNSIA / HASLRFD / QHYHRLPLI.
0.23 (6 of 6 replicates; controls 0 of 18) for KSSQSYLYESGNKNSVA / HASTRES / QQYHRLPLS.
0.26 (6 of 6 replicates; controls 0 of 18) for HSSPSVLYESRNGNSVA / NASTRED / QQYHRLPLS.
2.31 (2 of 6 replicates; controls 0 of 18) for MISQLMQMGQFAINSVA / QASIRNA / QQYDRLPLA.
0.08 (6 of 6 replicates; controls 1 of 18) for KCSQNVLIMGRGKNNVA / EMTTREE / QQYDRLPLS.
0.24 (6 of 6 replicates; controls 1 of 18) for KSSGSVEMLSRNVNSVA / EASTRES / QQYHRLPLS.
nd (0 of 6 replicates; controls 0 of 18) for KSSPSVLYESFNKNSVA / AASTRES / QQYHRLPLS.
0.02 (6 of 6 replicates; controls 0 of 18) for KSSGSVEMLSRNVNSVA / EASTREL / QQYHRLPLS.
0.68 (6 of 6 replicates; controls 0 of 18) for KLQGSNLYESRNLNSVA / KASTRLQ / QQYHRLPLS.
0.27 (6 of 6 replicates; controls 0 of 18) for KLPHLSFVHDRMKNNVA / DLNRKAA / QQYNRLPLT.
-0.04 (6 of 6 replicates; controls 1 of 18) for KLSYSWPGESRNKNSVA / DANTRES / QQYHRLPLS.
-0.13 (12 of 12 replicates; controls 1 of 36) for KMSQSVLYESRNKNSVA / EASTRES / QQYHRLPLS.
0.87 (6 of 6 replicates; controls 0 of 18) for KSSISYLGEKRNKNSVA / EASTRES / QQYHRLPLS.
0.22 (6 of 6 replicates; controls 0 of 18) for FSSQSWLYESRNKNSVA / GASTRES / QQYHRLPLS.
2.03 (3 of 6 replicates; controls 1 of 18) for IVSQLMLWGLHASNSIA / EAVTRYN / QQYDRLPLF.
0.06 (6 of 6 replicates; controls 1 of 18) for KLSQSVEYESRNKNSVA / NASTRES / QQYHRLPLS.

As a blank, each scFv also met three strains without target: over all light chain designs, 4% of these pairings were detected, typically at 2.64 and seldom below 1.59. Also given: how often the same scFv was detected with the empty control strains. The authors averaged sequences with at least three values out of six and counted those with two or fewer as poor binders. Where one sequence has several entries in the source, the replicates are pooled. Of ten entries with the parent sequence, four were seen in most replicates (averages 0.34 to 2.37), three in one and three in none, so single entries are noisy.

Source: Li et al. 2023 (doi:10.1038/s41467-023-39022-2), MIT Lincoln Laboratory and A-Alpha Bio; data file from the FLAb repository.